Values of other authors, collected in patent publication US10092564B2, “Use of masitinib for treatment of an amyotrophic lateral sclerosis patient subpopulation” (AB SCIENCE, priority 2016, dated 2018).

Tested on: people with ALS
Conditions: riluzole 100 mg, four randomized clinical trials, 1477 patients; cited from earlier work

## Nc1nc2ccc(OC(F)(F)F)cc2s1 [riluzole, 6-(trifluoromethoxy)benzothiazol-2-amine]
  prolongation of median survival with respect to participants taking placebo: 2 to 3 months
